Molecular target: Bromodomain-containing protein 4 (Homo sapiens, UniProt O60885)
Further: test concentration or dose not given here.

ΔTm: > 1 °C
Structure (SMILES): Cc1cc(-c2cc(NS(C)(=O)=O)ccc2Oc2ccccc2)n2c1C(=O)NCC2
